# Biological target: human NK2 receptor (Homo sapiens, UniProt P21452)
# Sequences of proteins named here, by UniProt entry; tags and fusion partners are left off.
# UniProt P21452, whole entry: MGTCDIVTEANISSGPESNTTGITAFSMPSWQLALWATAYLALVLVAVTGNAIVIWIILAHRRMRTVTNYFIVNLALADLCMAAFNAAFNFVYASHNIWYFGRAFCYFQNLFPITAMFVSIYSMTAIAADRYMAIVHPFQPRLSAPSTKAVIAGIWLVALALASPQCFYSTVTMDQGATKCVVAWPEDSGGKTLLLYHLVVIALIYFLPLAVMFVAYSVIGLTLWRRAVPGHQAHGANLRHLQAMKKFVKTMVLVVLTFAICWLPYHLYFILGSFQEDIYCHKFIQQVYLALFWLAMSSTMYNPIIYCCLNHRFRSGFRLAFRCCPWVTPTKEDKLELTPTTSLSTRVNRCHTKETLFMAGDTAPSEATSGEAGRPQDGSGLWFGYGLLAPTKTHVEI
# Assay: Neurokinin A (NKA) Receptor Binding Assay (Test B)
# Settings: read-out: IC50 versus 3H-NKA binding; versus ^3 H-NKA binding to MELM; standard compound, initial use of assay
# Source text: Neurokinin A (NKA) Receptor Binding Assay (Test B)
compound,measurement,value
CSCC[C@@H]1NC(=O)[C@H](CC(C)C)NC(=O)CNC(=O)[C@H](Cc2ccccc2)NC(=O)[C@H](Cc2c[nH]c3ccccc23)NC(=O)[C@H](CCC(N)=O)NC1=O,IC50,30 nM
